Target: prostaglandin E receptor EP2 (Homo sapiens, UniProt P43116)
Assay: 3H-PGE2 radioligand binding, recombinant HEK-293-EP2 cells
Assay type: cell-based

Sequences of proteins named here, by UniProt entry; tags and fusion partners are left off. A change or cut given only in a name is not applied to a line headed by its entry.
UniProt P43116: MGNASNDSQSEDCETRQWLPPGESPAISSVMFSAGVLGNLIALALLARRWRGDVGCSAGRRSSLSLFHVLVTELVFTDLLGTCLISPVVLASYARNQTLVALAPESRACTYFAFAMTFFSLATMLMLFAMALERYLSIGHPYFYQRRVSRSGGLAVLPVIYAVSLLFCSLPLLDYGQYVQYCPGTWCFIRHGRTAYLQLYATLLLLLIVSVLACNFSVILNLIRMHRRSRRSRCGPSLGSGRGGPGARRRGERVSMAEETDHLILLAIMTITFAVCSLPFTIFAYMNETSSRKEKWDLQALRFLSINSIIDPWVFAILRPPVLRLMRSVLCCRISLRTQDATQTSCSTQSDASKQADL

Compound: CCCCC[C@H](O)/C=C/[C@H]1[C@H](O)CC(=O)[C@@H]1C/C=C\CCCC(=O)O [PGE2]
- Kd: 3.1 nM

Source: article PMC3725620 (Breast cancer research and treatment, 2011)
